# Earlier results in patent US7172876B2, “Method of screening therapeutic agents for nerve degeneration associated diseases” (Takeda Pharmaceutical Company Limited, priority 2002, dated 2007).
# Biological target: T1, FPRL1 (Homo sapiens, UniProt P25090)
# T1 sequence (P25090 1-351): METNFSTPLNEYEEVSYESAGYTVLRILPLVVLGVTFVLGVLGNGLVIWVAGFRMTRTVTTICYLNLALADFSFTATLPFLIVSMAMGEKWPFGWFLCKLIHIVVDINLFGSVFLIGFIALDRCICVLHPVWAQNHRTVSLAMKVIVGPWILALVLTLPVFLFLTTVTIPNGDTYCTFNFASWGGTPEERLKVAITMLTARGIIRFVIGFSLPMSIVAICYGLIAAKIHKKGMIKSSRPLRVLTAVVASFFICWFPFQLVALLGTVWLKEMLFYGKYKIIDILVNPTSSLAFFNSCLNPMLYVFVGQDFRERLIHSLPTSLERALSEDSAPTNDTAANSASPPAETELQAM
# Conditions: reported in the literature; cited from earlier work
substance,measurement,value
formyl-Met-Leu-Phe [fMLF],agonist of FPRL1,Agonists
